# Measurements as given in patent publication US12668568B2, “Adamantanyl-substituted benzamide compounds and their use as P2X7 receptor antagonists” (The University of Sydney, priority 2018, dated 2026).
# Chains of the proteins cited; added tags and fusions are not shown. Lines headed by an entry give the natural chain unless they say otherwise; changes in a name come on top.
# UniProt Q99572: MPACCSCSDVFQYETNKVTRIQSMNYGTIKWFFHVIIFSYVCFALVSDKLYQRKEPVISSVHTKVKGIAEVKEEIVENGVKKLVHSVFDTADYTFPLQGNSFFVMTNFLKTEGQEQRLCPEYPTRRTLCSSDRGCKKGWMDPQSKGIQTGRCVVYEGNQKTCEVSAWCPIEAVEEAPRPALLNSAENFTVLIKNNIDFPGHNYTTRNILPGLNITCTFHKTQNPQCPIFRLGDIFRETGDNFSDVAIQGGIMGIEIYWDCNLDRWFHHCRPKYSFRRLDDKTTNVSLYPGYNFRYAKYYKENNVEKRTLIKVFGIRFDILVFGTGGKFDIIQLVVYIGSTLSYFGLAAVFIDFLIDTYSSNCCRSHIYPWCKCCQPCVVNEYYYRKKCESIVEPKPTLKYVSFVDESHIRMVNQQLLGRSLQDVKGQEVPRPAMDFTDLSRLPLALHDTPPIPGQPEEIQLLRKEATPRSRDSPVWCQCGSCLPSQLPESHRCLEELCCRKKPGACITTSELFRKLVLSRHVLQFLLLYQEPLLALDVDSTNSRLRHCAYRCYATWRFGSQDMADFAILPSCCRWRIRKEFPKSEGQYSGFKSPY
# Target: hP2X7R (Homo sapiens, UniProt Q99572)
# Test: Calcium influx assay in HEK-hP2X7 cells
# Type: cell-based
# Conditions: HEK cells expressing hP2X7R, BzATP 100 μM; mean ± standard deviation, n >3
# Protocol: Human monocytic leukaemia cells (THP-1) were obtained from the American Type Culture Collection (ATCC) and were grown in RPMI 1640 medium (Invitrogen), supplemented with penicillin (100 U/mL), streptomycin (100 μg/mL) and 10% (v/v) heat-inactivated fetal bovine serum (FBS). HEK293T cells transfected with cDNA for the human (HEK-hP2X7) or mouse P2X7 (HEK-mP2X7) receptor (a kind gift from Dr […] Stokes and Prof. Jim Wiley) were cultured in DMEM/F12 with 10% FBS and 500 μg/mL G418 (all from Invitrogen). […] HEK-hP2X7 or HEK-mP2X7 cells were harvested using trypsin (0.05%) with EDTA (0.03%). Cells were loaded with Fluo-4 AM (1 μM) in HBSS buffer at 37° C. for 30 min, inverting every 5 mins. Cells were then washed twice with assay buffer (NaCl 137 mM, KCl 1.8 mM, KH2PO4 1.2 mM, MgSO4 1.2 mM, NaHCO3 5.2 mM, CaCl2 1.6 mM, glucose 6 mM, HEPES 20 mM, pH 7.3), centrifuging between washes at 1200 rpm for 5 mins. Cells were resuspended a final time in assay buffer and seeded into black-walled 96 well clear-bottom plates at a density of 5×10^4 cells/well. […] Fluorescence was then monitored every 5 s for 5 min total monitoring. […] Data were normalized to the peak response seen with BzATP alone and the basal response seen due to injection of vehicle (see FIG. 3).
compound,measurement,value
"COc1ccc(Cl)c(C(=O)NCC23CC4(F)CC(F)(CC(F)(C4)C2)C3)c1 [Compound 1, 2-Chloro-N-((3,5,7-trifluoroadamantan-1-yl)methyl)-5-methoxybenzamide]",IC50,24.5 ± 5.5 nM
